Assay [1] relates to oligodendrocytes. To be noted: 48 hours.
Assay [2] concerns oligodendrocytes. Description: Test 3: protective effect of riluzole on oligodendrocyte death induced by kainate. The class given is cell-based, Wistar rats. The following applies: for Number of oligodendrocytes % relative to the control ± standard deviation: 48 hours. On the procedure:
Protective effect of riluzole on oligocytes death induced by kainate
The oligodendrocyte cultures were exposed to kainate at a dose of 1 mM and to riluzole at doses of from about 0.01 mM to about 10 mM.

“Also recorded” adds a separate entry of the source. Read-outs that look alike come from different tables or passages of the source.

Turning to `Nc1nc2ccc(OC(F)(F)F)cc2s1` [Riluzole, 2-amino-6-trifluoromethoxy-benzothiazole], the “Number of oligodendrocytes % relative to the control ± standard deviation” value in assay [1] (riluzole alone 0.01 mM) is given as 99.6 ± 15.7 % relative to the control; in assay [1] (riluzole alone 0.1 mM), 94.3 ± 17.3 % relative to the control; in assay [1] (riluzole alone 1 mM) it was 107.1 ± 9.5 % relative to the control; in assay [1] (riluzole alone 10 mM), 86.9 ± 16 % relative to the control; in assay [2] (Kainate 1 mM + riluzole 0.01 mM) it was 48.7 ± 7 % relative to the control; in assay [2] (Kainate 1 mM + riluzole 0.1 mM), 65.2 ± 9.2 % relative to the control. The “Number of oligodendrocytes % relative to the control ± standard deviation” value in assay [2] (Kainate 1 mM + riluzole 1 mM) is 69.4 ± 12 % relative to the control; in assay [2] (Kainate 1 mM + riluzole 10 mM) it was 56.3 ± 6.9 % relative to the control. Further, in assay [2] (kainate 1 mM, riluzole about 0.01 mM to about 10 mM), the “Effect on oligodendrocyte death from apoptosis induced by kainate” value is “reduces oligodendrocyte death from apoptosis induced by kainite; also recorded: reduced oligodendrocyte death from apoptosis induced by kainate”.

The values are drawn from patent US20020037902A1, “Use of riluzole or its salts for the prevention and treatment of adrenoleukodystrophy” (priority 2000, published 2002).
